The source of these data is ChEMBL document CHEMBL4270561, “Biological activity of doubly modified salinomycin analogs - Evaluation in vitro and ex vivo” (Eur J Med Chem, 2018).

This assay in a line: Cell cycle arrest in human ALL5 cells assessed as accumulation at S-phase at 5 times antiproliferative IC50 after 24 hrs by propidium iodide staining based flow cytometry (reference value: 6.76%). It counts as functional.

For the molecule `COc1cccc2c1C(=O)c1c(O)c3c(c(O)c1C2=O)C[C@@](O)(C(=O)CO)C[C@@H]3O[C@H]1C[C@H](N)[C@H](O)[C@H](C)O1` [DOXORUBICIN], the Activity came to 4.07%.
